Assays:
[1] = Pharmacokinetic experiment: cucurbitacin B plasma level after intravenous and oral administration (LC-MS/MS, non-compartmental analysis); assay type: in vivo, male Wistar rats; conditions: for Cmax: rat plasma
Protocol: (§1) Cucurbitacin B solution in DMSO/water for injection was administered to the rats at different doses and routes (intravenous cucurbitacin B at 0.1 mg/kg, and oral cucurbitacin B at 2–4 mg/kg). All cucurbitacin B solution given to the animals was prepared freshly prior to the experiment. Each rat was anesthetized with 10% isoflurane by chamber induction method before intravenous administration or blood collection. Both approaches were conducted via lateral tail vein. The dose of cucurbitacin B for injection was calculated based on amount of cucurbitacin B in the solution to obtain an equivalent dose of 0.1 mg/kg. In the case of oral administration, a gavage needle was used to supply the pre-specified dose of cucurbitacin B at 2, and 4 mg/kg. For blood collection, pre-heparinized needles and syringes were used during the blood sampling process. Approximately 300 μL of blood sample was collected serially after cucurbitacin B administration at different time points as follows: 0.083 (5 min), 0.25 (15 min), 0.5 (30 min), 1, 2, 4, 8, 16, and 24 h. Collected blood samples were then centrifuged at 3000×g for 10 min to obtain plasma, and stored at − 20 °C until further process. After each blood sampling session, the rat was placed in the metabolic cage, then urine and feces were segregated and collected automatically by the functionality of cages at distinct periods of time comprehensive of 0–24, and 24–48 h. Measurement of urine volume and feces weight were completed right after sample collection, then they were stored at − 20 °C until analysis.
Protein precipitation was the extraction procedure used in this study. In brief, plasma 50 μL was treated with 200 μL of methanol containing 25 ng of glycyrrhizic acid as the internal standard. The samples were mixed for 10 min and then centrifuged at 10,000×g for 10 min. One hundred fifty microliter of supernatant from each sample was collected for further LC-MS/MS analysis.
LC-MS/MS was used to determine cucurbitacin B level in biological samples. Nexera UHPLC (Kyoto, Japan) consisting of a vacuum degasser, a binary pump, an autosampler, and a column thermostat equipped with Shimadzu 8060 LCMS (Kyoto, Japan) was applied for this experiment. Control of both liquid chromatography and mass spectrometer was operated by LabSolution version 5.86 software (Kyoto, Japan). The mobile phase used in the system comprised of 0.2% v/v formic acid in water (pH 2.5), and methanol. Gradient phase elution was performed in every sample analysis. […] The flow rate used in the system was 0.3 mL/min with an injection volume of 15 μL. C18 reversed phase column, model Phenomenex Synergi Fusion-RP (Torrance, United States) equipped with Guard C18 column, model Phenomenex SecurityGuard Fusion-RP (Torrance, United States) was used for compound separation process. Column oven was maintained at 40 °C throughout the analytical procedure.
Biochemical markers including AST, ALT, and creatinine were presented as mean ± standard deviation (SD). Comparison of these markers between pre- and post-treatment groups was conducted by paired sample t-test in which statistical difference was decided at p-value < 0.05. Cucurbitacin B plasma levels obtained from LC-MS/MS analysis were further analyzed by constructing the curve between the calculated concentrations (μg/L) and blood sampling time points (h). Cucurbitacin B plasma concentrations in the plasma concentration-time curve were reported as mean ± SD. Pharmacokinetic parameters were computed by PK solutions 2.0 software (Montrose, United States) with non-compartmental analysis. The pharmacokinetic parameters were listed as follows: maximum plasma concentration (Cmax), time to maximum plasma concentration (Tmax), area under the curve from time zero to last sampling time point (AUC0-t), area under the curve from time zero to infinity (AUC0-inf), absolute oral bioavailability (F), elimination half-life (t1/2), volume of distribution (Vd), clearance (CL), and mean residence time (MRT). […]

Amino acid sequences for entries named in this document (tags omitted). A change or cut given only in a name is not applied to a line headed by its entry.
UniProt P05804: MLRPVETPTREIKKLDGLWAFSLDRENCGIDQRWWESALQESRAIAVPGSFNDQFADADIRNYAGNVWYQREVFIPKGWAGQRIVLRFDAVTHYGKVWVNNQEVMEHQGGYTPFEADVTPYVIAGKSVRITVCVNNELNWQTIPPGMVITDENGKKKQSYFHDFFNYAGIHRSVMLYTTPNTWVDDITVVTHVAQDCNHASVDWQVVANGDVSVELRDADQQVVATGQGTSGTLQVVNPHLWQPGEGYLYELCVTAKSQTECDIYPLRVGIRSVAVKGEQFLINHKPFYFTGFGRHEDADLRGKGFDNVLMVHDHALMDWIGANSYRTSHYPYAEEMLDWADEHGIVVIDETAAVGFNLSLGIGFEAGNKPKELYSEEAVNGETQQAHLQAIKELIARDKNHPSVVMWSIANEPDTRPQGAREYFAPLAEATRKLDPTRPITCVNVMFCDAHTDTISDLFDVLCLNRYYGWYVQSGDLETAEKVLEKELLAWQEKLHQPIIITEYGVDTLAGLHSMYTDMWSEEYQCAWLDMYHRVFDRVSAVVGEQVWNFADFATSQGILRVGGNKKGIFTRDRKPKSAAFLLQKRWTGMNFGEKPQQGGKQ

[2] = Tissue distribution: tissue to plasma concentration ratio (Kapp) after intravenous administration; assay type: in vivo, male Wistar rats; conditions: 0.1 mg/kg IV
Protocol: Heart, lungs, liver, stomach, spleen, small intestine, kidneys, and brain were collected after intravenous administration of cucurbitacin B 0.1 mg/kg injection. Euthanization was performed by 10% isoflurane with prolonged exposure at 1, 2, and 4 h after administration, and death was confirmed by exsanguination. Before organ removal, 1 mL of blood was withdrawn by cardiac puncture procedure, centrifuged at 3000×g for 10 min to obtain plasma, and stored at − 20 °C until further analysis. Unnecessary connective tissue was removed from the isolated organs by surgical blade and scissor. Excessive blood within the removed organs was washed twice by 0.9% saline solution at the temperature below 4 °C.
Internal organs including heart, lungs, liver, stomach, spleen, small intestine, kidneys, mammary glands, and brain were weighed out in 50 mg aliquots and then mixed with 200 μL of methanol containing 25 ng of glycyrrhizic acid. The mixture was later homogenized in an ice bath for 10 min and then centrifuged at 10,000×g for 10 min. One hundred fifty microliter of supernatant from each sample was collected for further LC-MS/MS analysis.
All of these pharmacokinetic parameters were presented as mean ± SD. For the tissue distribution study, the extent of cucurbitacin B that resided in each organ was depicted as tissue to plasma concentration ratio (Kapp). This parameter was computed by comparing concentration of cucurbitacin B in each internal organ to that obtained from plasma with the identical time point. […] All statistical analyses were performed by using IBM SPSS Statistics version 22 (Armonk, United States).

[3] = Excretion study: recovery of unchanged cucurbitacin B in urine and feces; assay type: in vivo, male Wistar rats
Protocol: as §1
For urine samples, the volume of each sample was measured, mixed for 10 min, centrifuged at 3000×g for 10 min and each supernatant was collected. Fifty microliter of supernatant was mixed with 200 μL of methanol containing 25 ng of glycyrrhizic acid. The final mixture was centrifuged at 10,000×g for 10 min and 150 μL of supernatant from each sample was collected for further LC-MS/MS analysis.
The weight of each feces sample was measured, homogenized, and adjusted to the total volume of 10 mL by methanol. Centrifugation at 3000×g for 10 min was performed and then supernatant was collected from each sample. Fifty microliter of supernatant was mixed with 200 μL of methanol containing 25 ng of glycyrrhizic acid. The final mixture was centrifuged at 10,000×g for 10 min and 150 μL of supernatant from each sample was collected for further LC-MS/MS analysis.

[4] = Stability of cucurbitacin B in QC samples at different storage conditions; assay type: in vitro ADME, rat
Protocol: The analytical method was performed according to US FDA bioanalytical method validation - guidance for industry. The following parameters were evaluated during the validation process including: selectivity, matrix effect and recovery, linearity, lower limit of quantification (LLOQ), accuracy, precision, and stability. Quality control (QC) samples were prepared prior to the validation process and three concentrations of analytical cucurbitacin B standard solution including 0.5, 10, and 15 μg/L were selected as representatives of low, medium, and high concentration, respectively.
The stability test consisted of short term stability at room temperature, long term stability at storage conditions, freeze-thaw stability, and autosampler stability. Short term stability was evaluated at room temperature for 24 h. Long term stability was assessed at − 20 °C for 3 months. The freeze–thaw stability of cucurbitacin B was tested by analyzing QC at three different concentrations subjected to three freeze-thaw cycles (− 20 and 25 °C). Lastly, autosampler stability was determined by measuring the peak area obtained from freshly prepared QC samples compared with samples that were stored in the autosampler compartment for 24 h.

β-glucuronidase = β-glucuronidase (Escherichia coli, UniProt P05804); assay type: in vitro ADME; conditions: excreta samples, 1000 units, 15 min
Protocol: Excretion of unchanged cucurbitacin B was assessed by calculating the recovery compared to the given dose. […] Currently, there was no available cucurbitacin B metabolism profile, and glucuronide conjugated cucurbitacin B was proposed as a major metabolite. Other reports mentioned that the metabolic pathway of cucurbitacin derivatives, cucurbitacin D and I, were metabolized by glucuronidation reactions. Therefore, we incubated the excreta samples with β-glucuronidase from Escherichia coli (1000 units) for 15 min, the reaction was stopped by adding the methanol and then evaluated for unconjugated cucurbitacin B by LC-MS/MS. […] Metabolite screening was also performed by using Agilent 6540 UHD Accurate Mass TOF LC/MS (Santa Clara, United States) in positive ionization mode (data not shown). There were some interesting molecules, which were detected in urine and fecal samples including 835.2322, 319.1372, and 222.0799 Da. Precisely matching and characterizing possible metabolites will require future study. From current knowledge, we concluded that cucurbitacin B was not metabolized by direct glucuronide conjugation. The molecule might be involved in the complex processes of phase I combined with phase II enzymatic reactions.

[5] = cited from earlier work
[6] = cited from earlier work; remark: listed apart in the source
[7] = 0.1 mg/kg IV, listed as cucurbitacin B

## Cucurbitacin B
[1]; 0.1 mg/kg IV
  AUC0-inf: 17.95 ± 13.21 ng·h/mL
  AUC0-t: 13.92 ± 11.11 ng·h/mL
  CL (clearance): 121 ± 48.7 mL/min/kg
  MRT: 6.03 ± 2.93 h
  Vd (volume of distribution): 51.65 ± 39.16 L/kg
  t1/2 (elimination half-life): 5.08 ± 2.87 h
[1]; [7]
  CL (clearance): approximately 7.24 L/h/kg
  Vd (volume of distribution): about 51.65 L/kg
  t1/2 (elimination half-life): approximately 5.08 ± 2.87 h
[1]; 2 mg/kg PO
  AUC0-inf: 25.33 ± 12.13 ng·h/mL
  AUC0-t: 15.10 ± 3.57 ng·h/mL
  MRT: 9.95 ± 12.27 h
  Tmax: 0.50 ± 0.00 h
  Cmax: 9.70 ± 3.95 ng/mL
[1]; 2 mg/kg PO vs 0.1 mg/kg IV
  F (absolute oral bioavailability): 10.25 ± 7.29%
[1]; 2 mg/kg PO, listed as cucurbitacin B
  Cmax: approximately 9.70 μg/L
[1]; 2 mg/kg oral, within 8 h
  cucurbitacin B concentration in plasma: 1.09 µg/L
[1]; 4 mg/kg PO
  AUC0-inf: 52.42 ± 29.58 ng·h/mL
  AUC0-t: 45.22 ± 10.14 ng·h/mL
  MRT: 5.50 ± 2.28 h
  Tmax: 0.60 ± 0.22 h
  Cmax: 31.24 ± 10.50 ng/mL
[1]; 4 mg/kg PO vs 0.1 mg/kg IV
  F (absolute oral bioavailability): 10.25 ± 5.63%
[1]; 4 mg/kg PO, listed as cucurbitacin B
  Cmax: ~31.24 ng/mL
[1]; 4 mg/kg oral, within 8 h
  cucurbitacin B concentration in plasma: 2.66 µg/L
[1]; after oral doses, 2 and 4 mg/kg
  time to highest concentration in plasma: ≤ 1 h
[1]; after oral dosing, 2–4 mg/kg
  time to reach maximum concentration: ≤ 30 min
[1]; both oral doses, 2 and 4 mg/kg
  absolute oral bioavailability: approximately 10%
[1]; both oral doses, at 16 h, LLOQ 0.1 μg/L
  cucurbitacin B concentration in plasma: could not be further detected
[1]; oral
  AUC0-inf after 4 mg/kg oral dosing relative to 2 mg/kg: 2 fold
[1]; oral 2–4 mg/kg
  maximum concentration in plasma after normalization by dose: 4.85 to 7.81 µg/L
[2]; 1 h
  tissue to plasma concentration ratio (Kapp), liver, stomach and small intestine: 4–14 times
  tissue to plasma concentration ratio (Kapp), lung: about 60 times
  tissue to plasma concentration ratio (Kapp), spleen: about 60 times
[2]; 2 h
  tissue to plasma concentration ratio (Kapp), liver: 23.72
  tissue to plasma concentration ratio (Kapp), lung: around 240 times
  tissue to plasma concentration ratio (Kapp), spleen: around 240 times
[2]; 4 h
  tissue to plasma concentration ratio (Kapp), liver: 38.29
[2]; LLOQ 0.1 μg/L
  cucurbitacin B concentration in brain and heart: lower than the LLOQ
[3]; 0.1 mg/kg IV
  Recovery of unchanged compound, feces at 0-24 h: < 1.00%
  Recovery of unchanged compound, feces at 24-48 h: < 1.00%
  Recovery of unchanged compound, urine at 0-24 h: < 1.00%
  Recovery of unchanged compound, urine at 24-48 h: < 1.00%
[3]; 2 mg/kg PO
  Recovery of unchanged compound, feces at 0-24 h: < 1.00%
  Recovery of unchanged compound, feces at 24-48 h: < 1.00%
  Recovery of unchanged compound, urine at 0-24 h: < 1.00%
  Recovery of unchanged compound, urine at 24-48 h: < 1.00%
[3]; 4 mg/kg PO
  Recovery of unchanged compound, feces at 0-24 h: < 1.00%
  Recovery of unchanged compound, feces at 24-48 h: < 1.00%
  Recovery of unchanged compound, urine at 0-24 h: < 1.00%
  Recovery of unchanged compound, urine at 24-48 h: < 1.00%
[3]; excreta 0–48 h after dosing, all doses
  unchanged cucurbitacin B in urine and feces, share of administered dose: less than 1%
[4]; Autosampler (10 °C), QC 0.5 μg/L
  %Recovery (stability): 89.05%
[4]; Autosampler (10 °C), QC 10 μg/L
  %Recovery (stability): 109.57%
[4]; Autosampler (10 °C), QC 15 μg/L
  %Recovery (stability): 100.75%
[4]; QC samples left at 25 °C for 24 h
  room temperature stability (recovery): 81.30–86.10%
[4]; Room temperature (12 h), QC 0.5 μg/L
  %Recovery (stability): 81.34%
[4]; Room temperature (12 h), QC 10 μg/L
  %Recovery (stability): 83.32%
[4]; Room temperature (12 h), QC 15 μg/L
  %Recovery (stability): 86.16%
[4]; Storage at −20 °C (3 months), QC 0.5 μg/L
  %Recovery (stability): 90.54%
[4]; Storage at −20 °C (3 months), QC 10 μg/L
  %Recovery (stability): 99.72%
[4]; Storage at −20 °C (3 months), QC 15 μg/L
  %Recovery (stability): 97.93%
[4]; Three freeze-thaw cycles, QC 0.5 μg/L
  %Recovery (stability): 92.01%
[4]; Three freeze-thaw cycles, QC 10 μg/L
  %Recovery (stability): 99.50%
[4]; Three freeze-thaw cycles, QC 15 μg/L
  %Recovery (stability): 99.54%
[4]; all test conditions
  stability (recovery): 81.30–109.50%
β-glucuronidase
  cucurbitacin B concentration after β-glucuronidase reaction compared to without reaction: not significantly different
[5]
  solubility in water: slightly soluble
[6]
  previously reported half-life: 2.50 to 3.19 h
[6]; rats, 20 mg/kg in 0.5% CMC
  elimination half-life: approximately 2.5 h
  time to highest concentration: ≤ 1.75 h
[6]; suspensions in carboxymethylcellulose
  previously reported Tmax: 1.75 to 2.41 h

Source: publication PMC6609384, “Pharmacokinetics of cucurbitacin B from Trichosanthes cucumerina L. in rats” (BMC Complementary and Alternative Medicine, 2019)
